Drawing on ChEMBL document CHEMBL4138235, “Discovery of aliphatic-chain hydroxamates containing indole derivatives with potent class I histone deacetylase inhibitory activities” (Eur J Med Chem, 2018), this text covers IC50 for one molecule.

Each structure is given as a SMILES string.

The target of this assay is T1, Histone deacetylase 8 (Homo sapiens, UniProt Q9BY41).
T1 sequence (Q9BY41 whole entry): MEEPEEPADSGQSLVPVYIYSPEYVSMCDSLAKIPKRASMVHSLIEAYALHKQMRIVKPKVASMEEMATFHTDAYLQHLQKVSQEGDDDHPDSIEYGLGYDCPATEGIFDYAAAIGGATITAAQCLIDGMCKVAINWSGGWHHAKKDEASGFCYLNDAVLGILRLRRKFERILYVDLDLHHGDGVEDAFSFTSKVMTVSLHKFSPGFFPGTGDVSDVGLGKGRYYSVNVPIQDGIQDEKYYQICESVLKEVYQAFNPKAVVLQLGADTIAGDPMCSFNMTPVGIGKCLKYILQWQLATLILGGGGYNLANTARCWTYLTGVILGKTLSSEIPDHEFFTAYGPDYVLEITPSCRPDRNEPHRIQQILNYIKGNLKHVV
In words: Inhibition of C-terminal His-tagged recombinant human HDAC8 (1 to 377 residues) expressed in baculovirus infected Sf9 insect cells using Boc-Lys(TFA)-AMC as substrate preincubated for 5 mins followed by substrate addition measured after 30 mins by fluorescence assay.

Regarding `O=C(CCCCCCC(=O)Nc1ccccc1)NO` [VORINOSTAT], the IC50 was 3.4 µM.
